Molecules are shown by their SMILES.

Amino acid sequences for entries named in this document (tags omitted). Residues count along the entry.
UniProt P43220, 24-463: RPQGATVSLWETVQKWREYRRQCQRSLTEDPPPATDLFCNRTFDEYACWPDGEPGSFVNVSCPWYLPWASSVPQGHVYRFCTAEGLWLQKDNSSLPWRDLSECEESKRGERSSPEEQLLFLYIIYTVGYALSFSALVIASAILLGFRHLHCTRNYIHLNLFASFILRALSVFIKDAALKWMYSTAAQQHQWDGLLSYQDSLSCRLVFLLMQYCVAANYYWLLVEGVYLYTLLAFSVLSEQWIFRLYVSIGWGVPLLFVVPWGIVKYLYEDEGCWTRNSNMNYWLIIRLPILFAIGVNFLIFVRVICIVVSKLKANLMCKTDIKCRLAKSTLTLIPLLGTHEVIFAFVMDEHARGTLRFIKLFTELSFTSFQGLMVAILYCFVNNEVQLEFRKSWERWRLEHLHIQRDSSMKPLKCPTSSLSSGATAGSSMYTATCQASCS
UniProt P47871, 26-477: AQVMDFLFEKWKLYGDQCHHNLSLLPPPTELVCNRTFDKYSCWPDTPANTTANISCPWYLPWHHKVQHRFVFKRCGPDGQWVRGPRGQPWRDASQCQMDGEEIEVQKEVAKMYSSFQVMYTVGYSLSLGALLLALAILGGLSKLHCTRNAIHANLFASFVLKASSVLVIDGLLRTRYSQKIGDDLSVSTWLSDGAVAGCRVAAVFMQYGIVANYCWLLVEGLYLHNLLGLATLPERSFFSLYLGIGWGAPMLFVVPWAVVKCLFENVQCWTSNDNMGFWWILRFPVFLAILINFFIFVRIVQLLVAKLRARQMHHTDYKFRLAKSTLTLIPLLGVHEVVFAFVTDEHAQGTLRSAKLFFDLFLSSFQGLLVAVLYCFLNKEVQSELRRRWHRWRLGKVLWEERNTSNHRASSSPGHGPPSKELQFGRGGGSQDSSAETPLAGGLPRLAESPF

Assay [1] addresses T1, human GLP-1 receptor (Homo sapiens, UniProt P43220).
T1 construct: expressed in transfected cells; host or cells: HEK-293
Put plainly: cAMP response (HTRF) of HEK-293 cells stably expressing human GLP-1 receptor. Format: cell-based. As to conditions: Table 5; cAMP, HEK-293; read-out: EC50 hGLP-1R.

The target in assay [2] is T2, human glucagon receptor (Homo sapiens, UniProt P47871).
T2 construct: expressed in transfected cells; host or cells: HEK-293
As to the kind of experiment: cAMP response (HTRF) of HEK-293 cells stably expressing human glucagon receptor. Format: cell-based. To be noted: Table 5; cAMP, HEK-293; read-out: EC50 hGlucagon-R.

Take `CCCCCCCCCCCCCCCC(=O)N[C@@H](CCC(=O)NCCCC[C@H](NC(=O)[C@H](CCC(N)=O)NC(=O)[C@H](CCCCN)NC(=O)[C@H](CO)NC(=O)[C@H](CC(C)C)NC(=O)[C@H](CC(=O)O)NC(=O)[C@H](CO)NC(=O)[C@@H](NC(=O)[C@H](Cc1ccccc1)NC(=O)[C@@H](NC(=O)CNC(=O)[C@H](CCC(N)=O)NC(=O)[C@@H](CO)NC(=O)[C@@H](N)Cc1c[nH]cn1)[C@@H](C)O)[C@@H](C)O)C(=O)N[C@@H](CC(=O)O)C(=O)N[C@@H](CO)C(=O)N[C@@H](CCCNC(=N)N)C(=O)N[C@@H](CCCNC(=N)N)C(=O)N[C@@H](C)C(=O)N[C@@H](CCC(N)=O)C(=O)N[C@@H](CC(=O)O)C(=O)N[C@@H](Cc1ccccc1)C(=O)N[C@H](C(=O)N[C@@H](CCC(=O)O)C(=O)N[C@@H](Cc1c[nH]c2ccccc12)C(=O)N[C@@H](CC(C)C)C(=O)N[C@@H](CCCCN)C(=O)N[C@@H](CC(N)=O)C(=O)NCC(=O)NCC(=O)N1CCC[C@H]1C(=O)N[C@@H](CO)C(=O)N[C@@H](CO)C(=O)NCC(=O)N[C@@H](C)C(=O)N1CCC[C@H]1C(=O)N1CCC[C@H]1C(=O)N1CCC[C@H]1C(=O)N[C@@H](CO)C(=O)NC(C)(C)C)[C@@H](C)CC)C(=O)O` [compound 100]: the EC50 is 13.5 pM in assay [1] and 2 pM in assay [2].

With `CCCCCCCCCCCCCCCCCC(=O)N[C@@H](CCC(=O)NCCCC[C@H](NC(=O)[C@H](CCC(N)=O)NC(=O)[C@H](CCCCN)NC(=O)[C@H](CO)NC(=O)[C@H](CC(C)C)NC(=O)[C@H](CC(=O)O)NC(=O)[C@H](CO)NC(=O)[C@@H](NC(=O)[C@H](Cc1ccccc1)NC(=O)[C@@H](NC(=O)CNC(=O)[C@H](CCC(N)=O)NC(=O)C(C)(C)NC(=O)[C@@H](N)Cc1c[nH]cn1)[C@@H](C)O)[C@@H](C)O)C(=O)N[C@@H](CC(=O)O)C(=O)N[C@@H](CCC(=O)O)C(=O)N[C@@H](CCC(N)=O)C(=O)N[C@@H](CCCNC(=N)N)C(=O)N[C@@H](C)C(=O)N[C@@H](CCCCN)C(=O)N[C@@H](CC(C)C)C(=O)N[C@@H](Cc1ccccc1)C(=O)N[C@H](C(=O)N[C@@H](CCC(=O)O)C(=O)N[C@@H](Cc1c[nH]c2ccccc12)C(=O)N[C@@H](CC(C)C)C(=O)N[C@@H](CCCCN)C(=O)N[C@@H](C)C(=O)N[C@H](C)C(=O)NCC(=O)N1CCC[C@H]1C(=O)N[C@@H](CO)C(=O)N[C@@H](CO)C(=O)NCC(=O)N[C@@H](C)C(=O)N1CCC[C@H]1C(=O)N1CCC[C@H]1C(=O)N1CCC[C@H]1C(=O)N[C@@H](CO)C(N)=O)[C@@H](C)CC)C(=O)O` [compound 200], the EC50 is 4.6 pM in assay [1] and 4.4 pM in assay [2].

For `CCCCCCCCCCCCCCCCCC(=O)N[C@@H](CCC(=O)NCCCC[C@H](NC(=O)[C@H](CCC(N)=O)NC(=O)[C@H](CCCCN)NC(=O)[C@H](CO)NC(=O)[C@H](CC(C)C)NC(=O)[C@H](CC(=O)O)NC(=O)[C@H](CO)NC(=O)[C@@H](NC(=O)[C@H](Cc1ccccc1)NC(=O)[C@@H](NC(=O)CNC(=O)[C@H](CCC(N)=O)NC(=O)C(C)(C)NC(=O)[C@@H](N)Cc1c[nH]cn1)[C@@H](C)O)[C@@H](C)O)C(=O)N[C@@H](CC(=O)O)C(=O)N[C@@H](CCC(=O)O)C(=O)N[C@@H](CCC(N)=O)C(=O)N[C@@H](CCCCN)C(=O)N[C@@H](C)C(=O)N[C@@H](CCCCN)C(=O)N[C@@H](CC(C)C)C(=O)N[C@@H](Cc1ccccc1)C(=O)N[C@H](C(=O)N[C@@H](CCC(=O)O)C(=O)N[C@@H](Cc1c[nH]c2ccccc12)C(=O)N[C@@H](CC(C)C)C(=O)N[C@@H](CCCCN)C(=O)N[C@@H](CO)C(=O)NCC(=O)NCC(=O)N1CCC[C@H]1C(=O)N[C@@H](CO)C(=O)N[C@@H](CO)C(=O)NCC(=O)N[C@@H](C)C(=O)N1CCC[C@H]1C(=O)N1CCC[C@H]1C(=O)N1CCC[C@H]1C(=O)N[C@@H](CO)C(N)=O)[C@@H](C)CC)C(=O)O` [compound 206], the results for the EC50 in assay [1] and in assay [2] were 3.2 pM and 12.5 pM, respectively.

(Values after US20140100156A1 (SANOFI, priority 2012, published 2014).)
